Experimental findings from patent US11760766B2, “Ionic liquids containing quaternary ammonium and phosphonium cations, and their use as environmentally friendly lubricant additives” (UT-Battelle, LLC, priority 2020, dated 2023) are described below.

The conditions of this data set: centrifuged 13,000 rpm 5 min.

Like-named read-outs stand apart in the source and are kept apart here.

As for “Trioctylammonium di(2-ethylhexyl)phosphate [[N888H][DEHP], reference compound]”, the “IL's solubility in base oil” value (OSP-32) is listed as >5% wt. % and the “IL's solubility in base oil” value (PAG (50-HB-170)) is reported as >5% wt. %.

Take “tributyl(methyl)ammonium dibutyl phosphate [[N4441][DBP]]”: the “IL's solubility in base oil” value reads like this: (OSP-32) >5% wt. %; (PAG (50-HB-170)) >5% wt. %.

Regarding “trioctylammonium salicylate [[N888H][C7H5O3]]”, the “IL's solubility in base oil” value runs as follows: (OSP-32) >5% wt. %; (PAG (50-HB-170)) >5% wt. %.
